# Apparent affinities of Ab-14 variants for a coronavirus HR2 peptide

Target: peptide PDVDLGDISGINAS, taken from heptad repeat 2 (HR2) of SARS-CoV-2 spike.

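The parent was found by panning a naive human phage display library on the peptide. Library AAYL50 holds single substitutions and randomly drawn double and triple substitutions in the CDRs. The assay is AlphaSeq: two haploid yeast populations carry antibody and antigen on their surface. Mating (16 h, 30 °C) was followed by selection of diploids and sequencing of their barcodes. Each replicate has its own calibration line, from reference interactions of the BCL2 family. Mating was done three times.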

Each scFv is VH, a (GGGGS)3 linker, VL, as in the parent Ab-14, and differs from it in the CDRs of the light chain only.
VH: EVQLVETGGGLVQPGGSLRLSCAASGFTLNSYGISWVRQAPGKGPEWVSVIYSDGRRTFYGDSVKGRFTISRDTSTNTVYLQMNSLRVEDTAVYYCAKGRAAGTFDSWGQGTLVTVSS
VL: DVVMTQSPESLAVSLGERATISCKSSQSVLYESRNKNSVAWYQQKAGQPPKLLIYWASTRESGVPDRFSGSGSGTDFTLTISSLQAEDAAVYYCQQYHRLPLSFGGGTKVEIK

Each variant is given by its three light chain CDRs, as the data file delimits them; those of the parent are KSSQSVLYESRNKNSVA, WASTRES, QQYHRLPLS.
The read-out is the apparent dissociation constant on a log10 scale (nM): the lower, the stronger.
"n.d." means that the variant was in the library but no mating with the target was seen in that replicate; the authors take this as a sign of poor binding, and no number exists.
Empty control strains, which show no peptide, gave a signal in 18% of pairings with library AAYL50; the median was 4.19 and 95% of these signals were weaker than 2.99. No background was subtracted.

CDR-L1 | CDR-L2 | CDR-L3 | log10 Kd (nM) by replicate
KSSQSVLYEMRNKNSVA | WASTRES | QAYHRPPLS | n.d. n.d. n.d.
KSSQSVLYESRNINSIA | WASTRES | QQYHRLPES | n.d. n.d. n.d.
KSSQSVLYESRNKNSVA | WKSTCES | QQYHALPLS | 2.43 n.d. n.d.
KSSQSVLYEYRNKNSVA | WASTRES | KQYHFLPLS | 1.97 2.28 1.97
KSSQSVLYESRNKNSVA | WAWTRES | QQYHRLRDS | n.d. n.d. n.d.
VSSQSVLYESRNKNSVA | WASTRES | QQYHRLPHS | 4.29 n.d. 4.20
KSSQSVLFESRNKNSVA | CASTRES | PQYHRLPLS | 1.70 1.47 2.00
KSSQSVLYEVRNKNSVA | WASTRES | QQYHLLPLS | 2.82 2.81 3.38
KQSQSVLYASRNKNSVA | WASTRES | QQYHRLALS | 1.89 1.28 1.53
KSSQSVFYESRNKNSVA | WASTRES | QQYHREPQS | n.d. n.d. 3.33
KSSQSVLYESRNKPHVA | WASTRES | QQYHRLMLS | 4.97 3.74 3.98
KSSQSVPYESQNKNSVA | WASTRER | QQYHRLPLS | 0.31 0.57 0.61
KSCQSVVPESRNKNSVA | WASTRES | QQYHRLPLS | 1.56 1.48 1.58
KSSQSVLYEYRNKNSVA | WLSTRES | QQYMRLPLS | n.d. n.d. n.d.
VSSQSVLYESRNKNSVA | WASTRES | QQPHMLPLS | n.d. n.d. n.d.
KSSQSVLYESSNKNSVA | WASTLES | QQYHRLPLS | 2.26 2.15 2.47
KSSQSVLYESRFKNSVA | WASTRES | QQKHGLPLS | 1.42 1.53 1.87
YSSQSVLYESRNKNSVA | WASTRES | QQYHCLPSS | 4.23 n.d. 4.23
KSIQSVLYESREKNSVA | WASTRES | QQYHRLPLS | 1.98 2.27 2.31
KSSQSVLYESRNKNNVA | RFSTRES | QQYHRLPLS | 2.71 2.90 2.50
KMSQSVLYESRNKNSVA | WASTRGS | QQYHRLLLS | 1.50 1.42 1.15
KSSQSVLYLSRNKNSVA | WASTRMS | QPYHRLPLS | n.d. 3.29 n.d.
KSSGSVLYESLNKNSVA | PASTRES | QQYHRLPLS | n.d. n.d. n.d.
KDSQSVLYESRNANSVA | WASTRES | QQYHRLPLI | n.d. 1.53 1.65
KSSQSVLYESRNKNQVA | WASTRSS | QQGHRLPLS | n.d. n.d. n.d.
KSSQHVLYESRDKNSVK | WASTRES | QQYHRLPLS | n.d. n.d. n.d.
RSSQSVLYESRNKNSVR | WASTRWS | QQYHRLPLS | 5.61 n.d. n.d.
KSSQLVLYESRNKVSVA | WASTRES | QQYHRLPLS | 3.41 3.24 3.49
KSSQSVLYESRCKNSVA | WAKTRES | QQYHDLPLS | n.d. n.d. n.d.
KSSQSCLYESRNKNSEA | WASARES | QQYHRLPLS | n.d. n.d. n.d.
KISQSVLQEFRNKNSVA | WASTRES | QQYHRLPLS | -0.23 0.18 0.08
KSSQSVNYESRNKNSVA | IASTRES | QQYHRLPLS | n.d. n.d. n.d.
KQSQSQLYESRNCNSVA | WASTRES | QQYHRLPLS | 1.81 1.93 2.30
KSSQAVLPESRNKNSVA | WASKRES | QQYHRLPLS | 1.26 1.25 1.77
KSSQSVLYESRNKNSVA | WAQTRES | QQVHALPLS | n.d. n.d. n.d.
KSSQSVQYESRNKNSVA | WASTRES | VQYHRLPLS | 1.58 1.56 1.63
KSSQSNLYESRNKNSVA | WALTFES | QQYHRLPLS | n.d. n.d. n.d.
KSSQSVLYESRNLNSVP | WASCRES | QQYHRLPLS | 2.76 2.50 2.78
KSFQSVLYESRNKNSVM | WASTRES | QQYHRRPLS | 3.59 n.d. 5.00
KSSQSVLYESRNKNQVA | WASLRES | QQYHRLPTS | 4.82 n.d. 4.27
KSSQSVLYESRNQNSVA | WASRRES | IQYHRLPLS | 0.73 0.70 0.69
KSSQSVLYESRRKNFVA | EASTRES | QQYHRLPLS | 3.61 2.98 3.56
KSSQSVLCYSRNKNSVA | WASTRES | QQYHRLPLS | 2.39 3.81 3.06
KSSQSVLYESRNLNSLA | WASTRES | QQYHRLELS | n.d. n.d. n.d.
KWSASYLYESRNKNSVA | WASTRES | QQYHRLPLS | 0.86 0.95 1.03
KSSQSVLYESRNKNSVA | WASTRES | WQYHRLLLL | n.d. n.d. n.d.
KSSNSVLYEARNKNSVA | WASTRES | QQEHRLPLS | 1.32 1.22 1.01
KSSQSVLYPSWNKNSVA | WASTNES | QQYHRLPLS | n.d. n.d. n.d.

The closing 7 entries, repeated:

| CDR-L1 | CDR-L2 | CDR-L3 | log10 Kd (nM) by replicate |
|---|---|---|---|
| KSSQSVLYESRRKNFVA | EASTRES | QQYHRLPLS | 3.61 2.98 3.56 |
| KSSQSVLCYSRNKNSVA | WASTRES | QQYHRLPLS | 2.39 3.81 3.06 |
| KSSQSVLYESRNLNSLA | WASTRES | QQYHRLELS | n.d. n.d. n.d. |
| KWSASYLYESRNKNSVA | WASTRES | QQYHRLPLS | 0.86 0.95 1.03 |
| KSSQSVLYESRNKNSVA | WASTRES | WQYHRLLLL | n.d. n.d. n.d. |
| KSSNSVLYEARNKNSVA | WASTRES | QQEHRLPLS | 1.32 1.22 1.01 |
| KSSQSVLYPSWNKNSVA | WASTNES | QQYHRLPLS | n.d. n.d. n.d. |

In this assay the parent's reference entry averaged 0.65; its copy inside this library read 1.68.

From the AlphaSeq antibody data of Engelhart et al. 2022 (doi:10.1038/s41597-022-01779-4), copy in the FLAb collection.